AlphaSeq binding of Ab-14 heavy chain variants to a spike HR2 peptide

From the AlphaSeq antibody data of Li et al. 2023 (doi:10.1038/s41467-023-39022-2), copy in the FLAb collection.

Binding partner: SARS-CoV-2 spike HR2 peptide, sequence PDVDLGDISGINAS.

Parent: Ab-14, a human scFv built as VH, a (GGGGS)3 linker, VL. Only the CDRs of the heavy chain vary.
VH: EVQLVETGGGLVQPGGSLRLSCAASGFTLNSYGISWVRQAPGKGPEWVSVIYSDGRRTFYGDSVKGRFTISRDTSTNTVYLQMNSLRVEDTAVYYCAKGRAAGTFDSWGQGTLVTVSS
VL: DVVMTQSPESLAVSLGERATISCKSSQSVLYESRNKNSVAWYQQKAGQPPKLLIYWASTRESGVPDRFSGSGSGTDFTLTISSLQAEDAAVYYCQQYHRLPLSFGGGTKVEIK

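The variants were designed computationally from a first round of random CDR variants and then made and measured. Group labels follow the data file (Rand: our label for a block that the file lists under HC and that is probably the random mutants of the ten best first-round binders; En: ensemble of fine-tuned language models; HC: hill climbing; Gen: genetic algorithm; Gibbs: Gibbs sampling; a sequence that several methods proposed may carry one label only). In AlphaSeq, yeast of one mating type display the scFv and yeast of the other type display the target. Mating (16 h, 30 °C) was followed by selection of diploids and sequencing of their barcodes. A regression on co-assayed BCL2-family reference pairs converts the normalised counts of each replicate to an apparent Kd. There are six technical replicates.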

The parent's heavy chain CDRs are GFTLNSYGIS, VIYSDGRRTFYGDSVK, GRAAGTFDS; each variant's own CDRs replace them letter for letter. Variants here have more than six changes. Affinities are written as log10 Kd with Kd in nM; a lower number is a better binder. A mean of the replicates is given; it leaves out those without a signal. A pair that was not seen in that replicate is written "ND"; this usually means weak binding, but a binder can also be missed. The authors' rule: three or more of the six replicates give a measured affinity, fewer mean a poor binder. A sequence measured in both rounds can read differently, since the two assays cover different ranges. Empty control strains, which show no peptide, gave a signal in 1% of pairings with all heavy chain designs; the median was 2.08 and 95% of these signals were weaker than 0.84. No background was subtracted. The parent sequence was in this pool as ten entries: three were never detected, three once, and four in most replicates, with averages from 0.34 to 2.37.

Variant GFDLNEYGIS / VIYADGKRKAYADSVK / GNVAGTFDI [En_Gen] gave -0.21, -0.44, -0.53, -0.37, -0.53, -0.23 (mean -0.38). For GFDLNEYGIS / VIYADGVRTAYADKVK / GNQAGTFDV [En_Gen], the assay gave -0.24, -0.07, 0.06, -0.53, -0.44, -0.26 (mean -0.25). Variant GFDLDEYGIS / VIYADGQRTFYADSVK / GNVAGTFDL [En_Gen] gave -0.52, -0.33, -0.27, -0.92, -0.63, -0.60 (mean -0.54). For GFDLNEYGIS / VIYADGKRTFYADSVK / GSEAGTFDM [En_HC], the assay gave -0.46, -0.49, -0.75, -0.82, -0.58, -0.50 (mean -0.60). With GFDLNEYGIS / VIYADGRRTAYIDSVK / GNQAGTFDT [En_HC] the result was ND, ND, ND, ND, ND, ND. With GFDLNEYGIS / VIYADGMRTAYADSVK / GNIAGTFDM [En_Gen] the result was -0.18, -0.20, -0.48, -0.37, -0.50, -0.16 (mean -0.32). For GFDLNEYGIS / VIYADGMRTAYANSVK / GNVAGTFDL [En_Gen], the assay gave 0.19, -0.27, -0.82, -0.43, -0.32, -0.56 (mean -0.37). For GFDLNEYGIS / VIYADGSRTAYADDVK / GNVAGTFDL [En_Gen], the assay gave -0.60, -0.68, -0.56, -0.66, -1.14, -0.21 (mean -0.64).

Variant GFTLNSFGIS / VIYSDGRRTFYDDSQK / HQLDGTFDS [Rand] gave ND, ND, ND, ND, ND, ND. Variant GKDIQEYGIS / VIYADGARTAYSNSVK / GTQDGSLIV [En_Gibbs] gave ND, ND, ND, ND, ND, ND. Variant GFDLNEYGIS / VIYADGSRTAYVDSVK / GNVAGTFDI [En_Gen] showed -0.36, -0.23, -0.55, -0.53, -0.49, -0.21 (mean -0.40). With GFDLDEYGIS / VIYADGKRTAYADSVK / GNVAGTFDQ [En_Gen] the result was -0.15, -0.14, -0.39, -0.31, -0.42, -0.22 (mean -0.27). With GFDLESYGIS / VIYADGKRTAYADSVK / GNVAGTFDV [En_HC] the result was -0.04, -0.04, -0.47, -0.23, -0.31, 0.01 (mean -0.18). Variant GFDLNEYGIS / VIYADGQRTAYADSVK / GNEAGTFDL [En_Gen] gave 0.12, ND, -0.48, 0.29, -0.82, -0.34 (mean -0.25). For GFDLNDYGIS / VIYADGRRTAYIDSVK / GEVAGTFDM [En_HC], the assay gave -0.12, -0.21, -0.18, -0.17, -0.27, -0.13 (mean -0.18). Variant GQDLESYGIS / VIYADGRRKAYHDSVK / GTNGSVSFV [En_Gibbs] gave ND, ND, ND, ND, ND, ND.

With GFDLDEYGIS / VIYADGQRTAYANSVK / GEVAGTFDV [En_Gen] the result was -0.24, -0.84, -0.56, -0.15, -0.87, -0.38 (mean -0.50). Variant GFDLNEYGIS / VIYADGVRTAYTDSVK / GTNAGTFDM [En_HC] gave -0.50, -0.35, -0.62, -0.54, -0.42, -0.33 (mean -0.46). For GFDLEDYGIS / VIYADGRRTFYADSVK / GEIAGTFDT [En_HC], the assay gave -0.29, -0.43, -0.36, -0.52, -0.49, -0.28 (mean -0.40). Variant GFNLNEYGIS / VIYADGIREHYVDDVK / GKHGGGKMD [En_Gibbs] showed -1.23, -1.35, -0.69, -1.07, ND, -1.47 (mean -1.16). Variant GFTLMSYGIS / VIYSDGRQTFYDDSVK / GYLAYTWDS [Rand] showed ND, ND, ND, ND, ND, ND. For GFDLEEYGIS / VIYADGQRTAYSDSVK / GNVAGTFDL [En_Gen], the assay gave -0.12, -0.51, -0.01, -0.67, -0.46, -0.48 (mean -0.38). For GFDLNEYGIS / VIYADGRRTSYKDSVK / GEQAGTFDV [En_HC], the assay gave 1.38, 0.10, 1.51, 0.69, 1.09, 0.94 (mean 0.95). Variant GFDLGEYGIS / VIYADGKRTACKTNVK / GTFAGTLLV [En_Gibbs] showed ND, ND, ND, ND, ND, ND.

With GFDLNEYGIS / VIYADGRRTAYSDSVK / GGNAGTFDV [En_Gen] the result was -0.52, -0.31, -0.23, -0.53, -0.60, -0.43 (mean -0.44). For GFDLNEYGIS / VIYADGSRTFYSDSVK / GQVAGTFDV [En_HC], the assay gave 1.60, 1.38, 3.46, 1.58, 1.75, 1.42 (mean 1.86). With GFDLNEYGIS / VIYADGKRTAYADDVK / GQVAGTFDV [En_Gen] the result was 0.90, -0.53, -0.92, -0.09, -0.64, -0.26 (mean -0.26). With GFNLNEYGIS / VIYADGKRKFYADSVK / GNTAGTFDS [En_HC] the result was -0.08, -0.48, -0.59, -0.82, -0.68, -0.49 (mean -0.53). Variant GFDLNEYGIS / VIYADGKRTAYSDSVK / GSNAGTFDI [En_Gen] showed -0.79, -1.09, -1.24, -0.92, -1.09, -1.04 (mean -1.03). With GEDLQEYGIS / VIYADGLRTAYSDNFK / GHLGGQFDH [En_Gibbs] the result was ND, ND, ND, ND, ND, ND. For GFDLNDYGIS / VIYADGMRTQYIDSVK / GEVAGTFDL [En_HC], the assay gave 0.20, 0.14, 0.60, -0.36, -0.06, 0.08 (mean 0.10). Variant GFDLNEYGIS / VIYADGKRTAYADSVK / GTNAGTFDM [En_Gen] gave -0.16, -0.21, -0.08, -0.21, -0.07, -0.10 (mean -0.14).

With GFDLNEYGIS / VIYADGMRTFYSDKVK / GNVAGTFDI [En_HC] the result was -0.29, -0.32, -0.11, -0.75, 0.42, -0.12 (mean -0.19). For GFDLDEYGIS / VIYADGIRSQYHDSVK / GTGGFDIEL [En_Gibbs], the assay gave ND, ND, 4.18, ND, ND, ND.

Extract of 5 entries:

With GFDLDEYGIS / VIYADGQRTFYADSVK / GNVAGTFDL [En_Gen] the result was -0.52, -0.33, -0.27, -0.92, -0.63, -0.60 (mean -0.54).
With GFDLNEYGIS / VIYADGRRTSYKDSVK / GEQAGTFDV [En_HC] the result was 1.38, 0.10, 1.51, 0.69, 1.09, 0.94 (mean 0.95).
With GFDLNEYGIS / VIYADGSRTFYSDSVK / GQVAGTFDV [En_HC] the result was 1.60, 1.38, 3.46, 1.58, 1.75, 1.42 (mean 1.86).
With GFNLNEYGIS / VIYADGIREHYVDDVK / GKHGGGKMD [En_Gibbs] the result was -1.23, -1.35, -0.69, -1.07, ND, -1.47 (mean -1.16).
With GFDLNDYGIS / VIYADGMRTQYIDSVK / GEVAGTFDL [En_HC] the result was 0.20, 0.14, 0.60, -0.36, -0.06, 0.08 (mean 0.10).